The test system of the assay is MCF-7 cells stably transfected with MRP3s1/Bsd. Kind of assay: MTS/MTT assays of drug resistance of MCF-7 cells stably transfected with MRP3s1 expression vector. The settings on record: MRP3s1/Bsd-transfected MCF-7 clone vs MCF-7 cells stably transfected with empty pcDNA/Bsd control vector. On the technique in general: Tetrazolium dyes change colour on reduction, which living cells bring about.

4-hydroxycyclophosphamide: the “resistance of MRP3s1-expressing clone relative to control” value is listed as 3-4 times.

The record behind these values is patent US20070015913A1, “Mrp3 genes and uses thereof” (published 2007).
